Reference: US20230285402A1, “Compositions and Methods of Modulating Short-Chain Dehydrogenase Activity” (BOARD OF REGENTS OF THE UNIVERSITY OF TEXAS SYSTEM, priority 2013, published 2023)

Sequences of proteins named here, by UniProt entry; tags and fusion partners are left off.
UniProt P15428, whole entry: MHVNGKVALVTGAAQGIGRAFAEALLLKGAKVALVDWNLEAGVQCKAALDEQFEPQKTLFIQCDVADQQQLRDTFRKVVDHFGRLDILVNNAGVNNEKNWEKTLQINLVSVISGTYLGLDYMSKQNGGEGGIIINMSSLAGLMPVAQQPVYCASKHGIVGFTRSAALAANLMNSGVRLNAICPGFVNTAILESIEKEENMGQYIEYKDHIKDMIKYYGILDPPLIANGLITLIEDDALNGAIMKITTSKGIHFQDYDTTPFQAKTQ

How the values were obtained:
15-PGDH [1] = target: T1, 15-PGDH (Homo sapiens (Human), UniProt P15428); experiment: Melting temperature shift of recombinant 15-PGDH (SYPRO Orange); type: binding; conditions: cofactor 10 μM and 100 μM
15-PGDH mRNA = 15-PGDH mRNA by real-time PCR in colon cancer cell lines; conditions: treated colon cancer cell lines
15-PGDH protein = experiment: Western blot / immuno-fluorescence of 15-PGDH protein levels in treated cells
A549 cells = experiment: PGE2 in medium of IL1-beta stimulated A549 cells; type: cell-based; conditions: IL1-beta 23 hours, compound for last 5 hours
15-PGDH [2] = target: T1, 15-PGDH; experiment: Total 15-PGDH activity in lysates of treated cell lines; type: cell-based; conditions: FIG. 13; tritium method
[3] = target: recombinant 15-PGDH protein (a 15-PGDH-GST fusion protein) (Homo sapiens (Human), UniProt P15428); experiment: Recombinant 15-PGDH activity, transfer of tritium from 15(S)-[15-3H] PGE2 to glutamate; type: biochemical; conditions: FIG. 13; tritium method

Compound: COc1ccc(-c2cc(C(F)(F)F)n3nc(C(=O)N4CCCCC4)cc3n2)cc1
- direct binding to 15-PGDH, in words (15-PGDH [1]): evidence of direct binding
- 15-PGDH mRNA levels (15-PGDH mRNA): do not in general alter 15-PGDH mRNA levels
- wt-PGDH protein expressed from cDNA expression vector (15-PGDH protein; 5 μM, V400-S3-2-32 cells): increases levels of 15-PGDH protein
- catalytically dead mutant 15-PGDH (mu-PGDH) protein (15-PGDH protein; V400-M3-2-72 cells): increases protein levels
- 15-PGDH protein levels (immuno-fluorescence and western blot) (15-PGDH protein; V503 cells): increase in 15-PGDH protein levels
- 15-PGDH protein levels (western blot) (15-PGDH protein; colon cell lines, FIG. 3): increases 15-PGDH protein levels
- 15-PGDH activity in cells as reflected in PGE2 levels (A549 cells): clear inhibition of 15-PGDH activity
- 15-PGDH activity in treated cells (15-PGDH [2]): increasing 15-PGDH activity in most cell lines
- IC50 [3]: 0.05 µM
